Laboratory results taken from ChEMBL document CHEMBL5034004, “Discovery of M3 Antagonist-PDE4 Inhibitor Dual Pharmacology Molecules for the Treatment of Chronic Obstructive Pulmonary Disease” (J Med Chem, 2021).

Amino acid sequences for entries named in this document (tags omitted).
UniProt P20309, whole entry: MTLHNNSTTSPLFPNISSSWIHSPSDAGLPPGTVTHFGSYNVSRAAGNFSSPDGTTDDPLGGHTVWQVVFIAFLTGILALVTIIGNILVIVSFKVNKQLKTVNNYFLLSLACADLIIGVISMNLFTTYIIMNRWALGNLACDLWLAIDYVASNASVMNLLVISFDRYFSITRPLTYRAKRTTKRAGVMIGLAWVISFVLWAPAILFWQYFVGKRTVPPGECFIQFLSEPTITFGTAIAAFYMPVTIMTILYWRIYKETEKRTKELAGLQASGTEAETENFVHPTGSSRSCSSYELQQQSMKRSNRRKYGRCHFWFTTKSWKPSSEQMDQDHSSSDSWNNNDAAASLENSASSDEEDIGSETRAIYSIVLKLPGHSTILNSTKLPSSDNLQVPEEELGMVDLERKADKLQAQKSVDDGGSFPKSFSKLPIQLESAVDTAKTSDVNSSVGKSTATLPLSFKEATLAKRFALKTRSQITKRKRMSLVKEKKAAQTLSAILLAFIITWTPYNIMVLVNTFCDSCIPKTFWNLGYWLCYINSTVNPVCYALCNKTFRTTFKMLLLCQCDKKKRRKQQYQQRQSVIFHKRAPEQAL
UniProt P08172, whole entry: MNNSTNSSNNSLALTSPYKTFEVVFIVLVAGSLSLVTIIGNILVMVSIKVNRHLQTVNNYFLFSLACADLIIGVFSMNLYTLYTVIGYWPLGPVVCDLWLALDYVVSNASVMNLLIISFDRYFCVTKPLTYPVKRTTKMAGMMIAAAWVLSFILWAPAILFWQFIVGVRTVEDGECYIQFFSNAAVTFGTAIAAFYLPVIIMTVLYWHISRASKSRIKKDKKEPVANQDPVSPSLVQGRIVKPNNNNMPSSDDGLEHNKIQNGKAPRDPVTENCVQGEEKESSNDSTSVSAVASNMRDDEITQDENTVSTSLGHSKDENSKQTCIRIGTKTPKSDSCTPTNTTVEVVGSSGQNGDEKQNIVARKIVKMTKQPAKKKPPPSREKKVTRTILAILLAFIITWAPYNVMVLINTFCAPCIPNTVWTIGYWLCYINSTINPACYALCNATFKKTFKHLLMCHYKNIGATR

Tests used:
[1] = biological target: Muscarinic acetylcholine receptor M3 (Homo sapiens, UniProt P20309); assay: Displacement of [3H]-N-methyl Scopolamine Chloride from human M3 receptor membranes incubated for 2 hrs by scintillation counting analysis; type: cell membranes, Cell membrane
[2] = biological target: Muscarinic acetylcholine receptor M2 (Homo sapiens, UniProt P08172); assay: Displacement of [3H]-N-methyl Scopolamine Chloride from human M2 receptor membranes incubated for 2 hrs by scintillation counting analysis; type: cell membranes, Cell membrane

Ki [1]: 0.794 nM
Ki [2]: 0.794 nM
SMILES: CC(C)[N+]1(C)[C@@H]2CC[C@H]1C[C@@H](OC(=O)C(CO)c1ccccc1)C2 (some centres not stated) [IPRATROPIUM]
